Literature values in US10668039B2, “Methods for treatment of adenoid cystic carcinoma” (THE CHILDREN'S MEDICAL CENTER CORPORATION, priority 2016, dated 2020).

Tested on: ACC
Conditions: Phase II trials in ACC; cited from earlier work

## Cetuximab: targeted anticancer agent of a Phase II trial in ACC
  Objective Response Rate: 0%
